Source: PubChem BioAssay
MC4R antagonist = human MC4R antagonism in cAMP assay. P32245. actives 0.48% (n = 360,000). MC4R-expressing cells, MTII-stimulated cAMP, LANCE TR-FRET. AID 540295. inhibition, % at 6.5 µM;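 active means inhibition above its plate's cutoff, the mean of tested wells on that plate plus 3 SD, cut at about 29% in these data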
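Material: U2OS-MC4R stable cell line | Reagent: Melanotan II challenge after compound preincubation | Doses: One concentration, 6.5 µM nominal | Incubation: 30-min compound preincubation, 1-h Melanotan II challenge, 1-h detection, room temperature | Signal: TR-FRET cAMP assay | Replicates: One well per compound, no replicates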
ALR inh = inhibitors of human sulfhydryl oxidase ALR. P55789. purified ALR, DTT oxidation, H2O2 HRP-luminol luminescence. inhibition, % (no concentration beside the values). hit rate 3.8% among 290,000;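 active means mean and each replicate at 75% or more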;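 further: stock transfer was 7.5 nL into about 7.5 µL; 0% = neutral wells and 100% = wells with inactivated enzyme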
HDAC3 inhib = human HDAC3 inhibition; O15379; recombinant HDAC3, fluorogenic peptide/trypsin coupled, fluorescence; inhibition, % at 8.3 µM; actives 0.15% (n = 320,000); AID 2718; in the data active means inhibition above about 26%, passing the limit was not always enough; inconclusive means no clear call, values can overlap the other calls
Yeast UUG start = modulators of yeast start codon fidelity, primary screen, whole organism, S. cerevisiae, single point, plate reader; S. cerevisiae UUG-firefly luciferase reporter, luminescence/redox ratio; activity score, % at 18.7 µM; actives 0.13% (n = 350,000); AID 602363, 2012;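 active = replicate mean at a twofold rise or more, about +100% in these data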;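 also: firefly luciferase made from a UUG start codon reports start codon fidelity; reporter light over untreated wells divided by growth signal over untreated wells; some hits fall short of that in this replicate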
NALP1 yeast inh = NALP1 inhibition; S. cerevisiae NALP1/ASC/caspase-1 growth, X-gal OD620, 72 h; inhibition, % at 10 µM; actives 0.61% (n = 280,000); in the data active means inhibition mostly above about 24%, no sharp cut-off; inactive means mostly below about 32%
MC4R ag barr = human MC4R agonism via beta-arrestin; P32245; U2OS MC4R beta-arrestin complementation, luminescence; percent of melanotan II response, DMSO zero; activation, % at 8.9 µM; actives 0.98% (n = 360,000); AID 540308;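 active means activation above a per-plate cutoff, the mean activation of sample wells on that plate plus 3 SD, cut at about 8% in these data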
A number is an active result; 0 = inactive; ? = inconclusive; - = no result given. An excerpt weighted towards active compounds, which were near 4.2% of everything screened.

SMILES	MC4R antagonist	ALR inh	HDAC3 inhib	Yeast UUG start	NALP1 yeast inh	MC4R ag barr
Cc1[nH]c2ccccc2c1C(=O)CN1CCCC1	0	0	0	0	0	0
O=C(CSc1ccc(Br)cc1)NCC1(N2CCCCC2)CCCCC1	0	-	-	0	-	0
CC(=O)Nc1ccc(SCC(=O)NCC2(N3CCCCC3)CCCCC2)cc1	0	98.9	0	-	-	0
N#CCC(=O)Nc1ccc(C(=O)NCC2(N3CCOCC3)CCCCC2)cc1	0	98.7	0	0	-	0
CC(=O)n1c(=O)c2ccccc2c(=O)n1-c1ccccc1	0	97.9	0	0	0	0
C[C@@H]1CN([C@@H](C)CO)C(=O)c2cc(NC(=O)Cn3cnnn3)ccc2O[C@@H]1CN(C)C(=O)Nc1ccc(C(F)(F)F)cc1	-	-	-	0	-	-
O=C(N/N=C/c1cc(Br)cc(Br)c1O)c1ccncc1	-	0	0	-	0	-
Cc1cccc(C(=O)Oc2c(Br)cc(Br)cc2/C=N/NC(=O)c2ccncc2)c1	0	0	0	0	28.0	0
CCSc1ccc2c(c1)N(CCCN1CCN(C)CC1)c1ccccc1S2	0	96.7	0	0	-	0
CN1CCN(CCCN2c3ccccc3Sc3ccc(Cl)cc32)CC1	0	99.1	0	0	0	0
CN1CCCC(CC2c3ccccc3Sc3ccccc32)C1 (stereo not given)	0	0	0	0	-	0
CN1CCCC(CN2c3ccccc3Sc3ccccc32)C1 (stereo not given)	0	99.1	0	0	0	0
Nc1ccc(NC(=O)Nc2ccc(N)cc2)cc1	0	99.2	0	0	0	0
NS(=O)(=O)c1ccc(NC(=O)Nc2ccc(Cl)cc2)cc1	0	0	0	-	0	0
CC(=O)Nc1ccc(N)cc1	0	89.4	0	0	-	0
O=C(N[C@@H]1C=C[C@H](CC(=O)N2CCOCC2)O[C@H]1CO)c1cccc(F)c1	-	-	-	0	-	-
CC(=O)Nc1ccc(N=Cc2ccc[nH]2)cc1	0	98.1	0	0	0	0
O=c1c2ccccc2nc2n1CCc1c-2[nH]c2ccccc12	0	0	0	0	-	0
Clc1ccc2[nH]c3c(c2c1)CCc1cn[nH]c1-3	0	99.0	0	0	0	0
c1ccc2c3c([nH]c2c1)-c1[nH]ncc1CC3	0	98.4	0	0	0	0
CCS(=O)(=O)Nc1ccc2c(c1)C(=O)N(C)C[C@H](OC)[C@@H](C)CN(C(=O)C1CCC1)[C@H](C)CO2	-	-	-	0	-	-
O=C(NC1CCCCC1)N[C@@H]1CC[C@@H](CCNS(=O)(=O)c2ccccc2)O[C@H]1CO	-	-	-	0	-	-
C[C@H](O)C#Cc1cnc2c(c1)C(=O)N([C@H](C)CO)C[C@@H](C)[C@@H](CN(C)C(=O)c1ccncc1)O2	-	-	-	0	-	-
COc1cc(/C=C/c2sc3ccccc3[n+]2CCCS(=O)(=O)[O-])ccc1O	0	98.7	0	-	0	0
O=C(Nc1ccccc1Cl)C1CCN(S(=O)(=O)c2cccc3nonc23)CC1	0	0	0	0	37.2	0
SMILES	MC4R antagonist	ALR inh	HDAC3 inhib	Yeast UUG start	NALP1 yeast inh	MC4R ag barr
CC1=CC(=O)C=C(C)C1=NOC(=O)/C=C\c1ccccc1	0	98.1	0	-	0	0
CC1=C(C)/C(=N\OC(=O)/C=C/c2ccccc2)C=CC1=O	0	86.7	0	0	0	0
Cc1ccc(S(=O)(=O)Nc2ccc3c(c2)C(=O)N([C@@H](C)CO)C[C@@H](C)[C@H](CN(C)C(=O)c2ccccc2)OCCCC[C@H](C)O3)cc1	-	-	-	0	-	-
OC[C@H]1[C@H](c2ccc(-c3ccccc3)cc2)[C@@H]2CN(CCC(F)(F)F)CCCCN12	-	-	-	0	-	-
Cc1noc(C)c1NC(=O)Nc1ccc2c(c1)CC(=O)N([C@@H](C)CO)C[C@H](C)[C@@H](CN(C)C(=O)NC(C)C)O2	-	-	-	0	-	-
Cc1ccc(-c2ccc3c(c2)O[C@@H](CN(C)C)[C@H](C)CN([C@@H](C)CO)S3(=O)=O)cc1	-	-	-	0	-	-
Cc1cc(C)cc(N(CC(=O)NCC2CCCO2)C(=O)CN2C(=O)COc3ccccc32)c1 (stereo not given)	0	0	0	0	22.8	0
COC(=O)c1cc(Cc2ccc(N)c(C(=O)OC)c2)ccc1N	0	0	0	0	0	0
COC(=O)Cc1ccc(O)c(N)c1	0	95.4	0	0	0	0
COc1ccc(NC(=O)Nc2ccc3c(c2)[C@@H]2C[C@@H](CC(=O)N(C)C)O[C@H](CO)[C@@H]2O3)cc1	-	-	-	0	-	-
CC(=O)Nc1cccc(C(=O)/C=C/c2cccs2)c1	0	96.9	0	0	0	0
CC(=O)Nc1cccc(C(=O)/C=C/c2ccc(/C=C/C(=O)c3cccc(NC(C)=O)c3)cc2)c1	-	0	0	-	0	-
CC(=O)Nc1cccc(C(=O)/C=C/c2ccc(N(C)C)cc2)c1	0	99.1	0	-	0	0
Cc1nc(N/N=C/c2ccccn2)sc1C	-	96.9	0	-	0	-
CCCc1sc(N/N=C/c2ccccn2)nc1-c1ccc(F)cc1	0	0	0	0	0	0
O=C(NNC(=S)NC(=O)c1ccc(F)cc1)c1cccnc1	0	98.1	0	0	0	0
O=C(NNC(=S)NC(=O)c1cccnc1)c1ccc(F)cc1	0	97.6	0	0	0	0
COc1ccc(C(=O)NNC(=S)NC(=O)c2cccnc2)cc1	0	0	?	-	0	0
O=C(NNC(=S)NC(=O)c1cccnc1)c1ccccc1	0	0	0	0	0	0
CC(C)Nc1nc(NC(C)C)nc(Oc2ccc(/C=N/O)cc2)n1	0	-	0	0	-	0
CN(C)c1nc(Oc2ccc(/C=N/O)cc2)nc(N(C)C)n1	0	98.8	0	0	0	0
COc1nc(Oc2ccc(/C=N/O)cc2)nc(N(C)C)n1	0	98.6	0	0	0	0
COc1cc(C)nc(Oc2ccc(/C=N/O)cc2)n1	0	98.3	0	0	0	0
O=C(N[C@@H]1CC[C@H](CC(=O)N2CCc3ccccc3C2)O[C@@H]1CO)C1CCC1	-	-	-	0	-	-
C[C@H](CO)N1C[C@H](C)[C@@H](CN(C)Cc2ccc(C(F)(F)F)cc2)OCCCC[C@H](C)Oc2ccc(NS(=O)(=O)c3ccc(Cl)cc3)cc2C1=O	-	-	-	0	-	-
SMILES	MC4R antagonist	ALR inh	HDAC3 inhib	Yeast UUG start	NALP1 yeast inh	MC4R ag barr
CCCCOC(=O)Nc1nnc(CC)s1	0	-	0	0	42.7	0
CCCNC(=O)C[C@H]1CC[C@@H]2[C@@H](COc3ccc(NC(=O)c4cccc(Cl)c4)cc3C(=O)N2C)O1	-	-	-	0	-	-
CCC(=O)N1CCN=C1SCc1c(F)cccc1Cl	0	98.5	0	0	0	0
CC(=O)N1CCN=C1SCc1c(F)cccc1Cl	0	97.8	0	0	0	0
Cc1cc(C(=O)Nc2cccc3c2O[C@@H](CN(C)C(=O)Nc2ccc4c(c2)OCO4)[C@@H](C)CN([C@H](C)CO)C3=O)n(C)n1	-	-	-	0	-	-
COc1ccccc1S(=O)(=O)N[C@H]1CC[C@H](CC(=O)N2CCOCC2)O[C@@H]1CO	-	-	-	0	-	-
C[C@@H]1CN([C@@H](C)CO)C(=O)c2cc(NS(=O)(=O)c3cn(C)cn3)ccc2O[C@H]1CN(C)CC1CCCCC1	-	-	-	0	-	-
